Laboratory results taken from patent US20230227534A1, “METHOD FOR GENERATING VARIANTS OF A PROTEIN” (ECOLE POLYTECHNIQUE FEDERALE DE LAUSANNE (EPFL), priority 2019, published 2023).

By UniProt entry, the sequences of proteins in these tests, tags left out. Where a name states a change or a piece, a line headed by the entry shows the natural chain unless it says otherwise.
UniProt P14416: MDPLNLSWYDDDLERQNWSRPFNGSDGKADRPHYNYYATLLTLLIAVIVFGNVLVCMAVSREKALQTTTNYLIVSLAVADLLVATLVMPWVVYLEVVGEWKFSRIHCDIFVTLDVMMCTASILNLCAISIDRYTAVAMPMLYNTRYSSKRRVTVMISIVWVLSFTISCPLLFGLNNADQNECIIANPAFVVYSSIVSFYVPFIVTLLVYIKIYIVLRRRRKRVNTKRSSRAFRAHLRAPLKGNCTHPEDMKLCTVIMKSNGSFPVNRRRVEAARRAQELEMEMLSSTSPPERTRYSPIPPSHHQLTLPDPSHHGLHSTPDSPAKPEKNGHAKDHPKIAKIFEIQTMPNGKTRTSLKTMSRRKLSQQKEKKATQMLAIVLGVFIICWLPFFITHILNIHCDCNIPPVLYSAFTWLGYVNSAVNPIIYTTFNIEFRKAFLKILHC

Target: T1, D2 receptor (Homo sapiens, UniProt P14416, T205I)
T1 construct: made in house; host or cells: HEK293T (receptor, transient transfection, anti-HA partial purification); Sf9 (Gi2)
Test: in vitro measurements of D2 activation (constitutive time course; agonist induced dose response)
Format: biochemical
Settings: ligand free, FIG. 1 top panel
Text: Regarding the T205I mutation, since ΔG-stability/ΔΔEs >0, the protein obtained by the method of the invention should have an increased constitutive activity compared to the native receptor. […] Therefore, the present invention allows to generate a D2 receptor stabilized in specific states, here in state A.
Regarding the T205M mutation, since ΔG-coupling/ΔΔEc >0, the protein obtained by the method of the invention should have a higher sensitivity for the ligand binding (ligand = dopamine and serotonin).
G protein activation assays. D2DR variants were assayed for their ability to induce guanine nucleotide exchange by the G protein Gi2. To measure constitutive activity the reaction mixture consisted of 4 uM Gi2, 20 uM of [^35S]-GTPγS mix, 50 mM Tris-HCI, pH 7.2, 100 mM NaCl, 4 mM MgCl2, 1 mM dithiothreitol. Receptor concentrations were ~10 nM per sample. Reactions were started by adding 150 uL partially purified receptor samples to 300 uL of reaction mixture and incubating on ice over a period of time from 0-30 minutes for timecourse measurements. To measure ligand induced D2DR activities, increasing amounts of dopamine or spiperone were added to the reaction mixtures. […] Radioactivity counts were measured on a Beckman LS6000 scintillation counter. Statistical significance of differences in constitutive or ligand-induced activities was assessed by student t-tests.

constitutive activity compared to the native receptor: increased
B1: T205I: dopamine D2 receptor variant, Threonine 205 to Isoleucine, stability microswitch (protein)
chain: MYPYDVPDYAYPYDVPDYAYPYDVPDYADDPLNLSWYDDDLERQNWSRPFNGSDGKADRPHYNYYATLLTLLIAVIVFGNVLVCMAVSREKALQTTTNYLIVSLAVADLLVATLVMPWVVYLEVVGEWKFSRIHCDIFVTLDVMMCTASILNLCAISIDRYTAVAMPMLYNTRYSSKRRVTVMISIVWVLSFTISCPLLFGLNNADQNECIIANPAFVVYSSIVSFYVPFIVILLVYIKIYIVLRRRRKRVNTKRSSRAFRAHLRAPLKGNCTHPEDMKLCTVIMKSNGSFPVNRRRVEAARRAQELEMEMLSSTSPPERTRYSPIPPSHHQLTLPDPSHHGLHSTPDSPAKPEKNGHAKDHPKIAKIFEIQTMPNGKTRTSLKTMSRRKLSQQKEKKATQMLAIVLGVFIICWLPFFITHILNIHCDCNIPPVLYSAFTWLGYVNSAVNPIIYTTFNIEFRKAFLKILHC
